A short description of this assay: Selectivity index, ratio of IC50 for african green monkey Vero cells to MIC90 for Mycobacterium tuberculosis H37Rv ATCC 27294 by microplate Alamar blue assay. The format is functional. In outline:
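Computed as Vero IC50 divided by the MABA MIC against H37Rv.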

Regarding `NNC(=O)c1ccncc1` [ISONIAZID], the “Selectivity Index” value is above 3333.

Consider `CO[C@H]1/C=C/O[C@@]2(C)Oc3c(C)c(O)c4c(O)c(c(/C=N/N5CCN(C)CC5)c(O)c4c3C2=O)NC(=O)/C(C)=C\C=C\[C@H](C)[C@H](O)[C@@H](C)[C@@H](O)[C@@H](C)[C@H](OC(C)=O)[C@@H]1C` [RIFAMPIN], for which the “Selectivity Index” value is above 1250.
